Assay results taken from patent US8414660B2, “Haloferax volcanii laccase and variants and fragments thereof” (University of Florida Research Foundation, Inc., priority 2009, dated 2013).

Protein sequences, listed by entry. Tags and fused reporters are not part of them. Residues count along the entry.
UniProt D4GPK6, 32-579: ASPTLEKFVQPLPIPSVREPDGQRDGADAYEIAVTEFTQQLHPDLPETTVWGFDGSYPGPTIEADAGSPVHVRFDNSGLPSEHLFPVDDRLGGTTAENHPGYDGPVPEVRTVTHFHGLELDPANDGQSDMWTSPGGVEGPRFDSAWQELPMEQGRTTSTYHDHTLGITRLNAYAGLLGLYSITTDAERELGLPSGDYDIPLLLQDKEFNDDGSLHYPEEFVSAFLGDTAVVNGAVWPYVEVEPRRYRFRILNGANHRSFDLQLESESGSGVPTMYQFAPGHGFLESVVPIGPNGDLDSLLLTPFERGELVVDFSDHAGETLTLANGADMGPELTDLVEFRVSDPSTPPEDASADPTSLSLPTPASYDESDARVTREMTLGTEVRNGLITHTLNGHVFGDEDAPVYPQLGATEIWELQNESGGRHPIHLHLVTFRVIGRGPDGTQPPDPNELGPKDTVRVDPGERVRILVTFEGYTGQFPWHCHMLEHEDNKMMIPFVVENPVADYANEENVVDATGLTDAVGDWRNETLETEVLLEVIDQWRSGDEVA

Target: LccA isolated from Hfx. volcanii SB01 (Haloferax volcanii, UniProt D4GPK6)
Assay: Effect of various compounds (inhibitors) on LccA activity, SGZ oxidation
Assay type: biochemical

`[N-]=[N+]=[N-]` was tested, and the “Inhibition of LccA” value (1 mM) was 50% and the “Relative Activity of LccA” value (compound 1 mM, 10 min at 45° C.) was 55.2 ± 2.7%.
